Publication PMC7094737 (Journal of Molecular Biology, 2008)
Positions count from the first letter of the chain named.

How the values were obtained:
MDO1 G182Y = target: T1, MDO1 G182Y (Homo sapiens, UniProt Q9BQ69, G182Y); format: binding; details: to MDO1 G182Y; ITC at 30 °C; NB, nonbinding
T1 sequence (Q9BQ69 83-325 G182Y): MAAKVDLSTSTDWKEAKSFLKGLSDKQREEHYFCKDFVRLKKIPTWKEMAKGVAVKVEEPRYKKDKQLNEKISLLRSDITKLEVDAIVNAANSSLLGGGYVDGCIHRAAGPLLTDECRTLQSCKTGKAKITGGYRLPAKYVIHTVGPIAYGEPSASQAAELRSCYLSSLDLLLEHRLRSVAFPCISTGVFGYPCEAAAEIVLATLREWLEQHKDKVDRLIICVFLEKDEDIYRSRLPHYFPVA

GDAP2 = target: T2, GDAP2 (Homo sapiens, UniProt Q9NXN4); format: binding; details: to GDAP2; ITC at 30 °C; NB, nonbinding
T2 sequence (Q9NXN4 1-231 isoform Q9NXN4-2): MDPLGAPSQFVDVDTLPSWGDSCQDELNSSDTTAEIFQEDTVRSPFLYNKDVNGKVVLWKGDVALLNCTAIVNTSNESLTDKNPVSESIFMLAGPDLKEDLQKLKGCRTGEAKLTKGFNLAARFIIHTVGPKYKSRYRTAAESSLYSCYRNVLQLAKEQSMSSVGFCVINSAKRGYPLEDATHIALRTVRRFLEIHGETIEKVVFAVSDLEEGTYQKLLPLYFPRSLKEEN

MDO1 G270Y = target: T3, MDO1 G270Y (Homo sapiens, UniProt Q9BQ69, G270Y); format: binding; details: to MDO1 G270Y; ITC at 30 °C; NB, nonbinding
T3 sequence (Q9BQ69 83-325 G270Y): T1 sequence (Q9BQ69 83-325 G182Y) with Y100G, G188Y

SFV macro (nsP3) = target: T4, SFV macro (nsP3) (Semliki forest virus, UniProt P08411); format: binding
T4 sequence (P08411 1337-1503 limits assumed): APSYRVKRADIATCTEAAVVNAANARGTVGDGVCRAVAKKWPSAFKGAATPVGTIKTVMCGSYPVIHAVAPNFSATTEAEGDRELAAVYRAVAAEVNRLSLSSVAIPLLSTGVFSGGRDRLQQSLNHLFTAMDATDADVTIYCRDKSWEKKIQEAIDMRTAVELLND

HEV macro = target: T5, HEV macro (Hepatitis E virus genotype 1, UniProt P29324); details: read-out: affinity for ADP-ribose, previously shown; cited from earlier work
T5 sequence (P29324 775-960): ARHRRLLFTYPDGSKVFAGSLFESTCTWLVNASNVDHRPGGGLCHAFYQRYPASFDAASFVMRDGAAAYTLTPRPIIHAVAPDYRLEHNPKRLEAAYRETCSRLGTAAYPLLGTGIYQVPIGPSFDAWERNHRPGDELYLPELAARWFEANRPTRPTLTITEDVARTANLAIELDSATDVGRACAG

Substance: ADP-ribose
- ADP-ribose binding, Kd (MDO1 G182Y): inactivated ADP-ribose binding
- ADP-ribose binding, Kd (GDAP2): completely inactive
- ADP-ribose binding, Kd (MDO1 G270Y): inactivated ADP-ribose binding
- ADP-ribose binding (SFV macro (nsP3); SFV macro (167-aa and 328-aa forms), ITC in the presence of 500 mM NaCl): no ADP-ribose binding was detected
- ADP-ribose binding, Kd (SFV macro (nsP3); […], ITC at 30 °C, NB, nonbinding): unable to detect the binding
- Kd (HEV macro): > 50 µM
